According to PubChem BioAssay AID1768 (National Center for Advancing Translational Sciences (NCATS), 2009):
The entries are a selection whose mix differs from that of the whole data set. Inconclusive results are not listed. The source made the active and inactive calls. The call rests on the fitted dose curve; in most records, active means well fitted inhibition curve with a large enough effect in the polarisation, with a control signal flat (not every such curve was filed as active); inconclusive means small, poorly fitted or top-dose-only effect, or effect the other way, or a change in a side signal; inactive means no such curve, though single readings can be large or run the other way; the % refers to the polarisation.

Chains of the proteins cited; added tags and fusions are not shown.
UniProt O00255, whole entry, looked up: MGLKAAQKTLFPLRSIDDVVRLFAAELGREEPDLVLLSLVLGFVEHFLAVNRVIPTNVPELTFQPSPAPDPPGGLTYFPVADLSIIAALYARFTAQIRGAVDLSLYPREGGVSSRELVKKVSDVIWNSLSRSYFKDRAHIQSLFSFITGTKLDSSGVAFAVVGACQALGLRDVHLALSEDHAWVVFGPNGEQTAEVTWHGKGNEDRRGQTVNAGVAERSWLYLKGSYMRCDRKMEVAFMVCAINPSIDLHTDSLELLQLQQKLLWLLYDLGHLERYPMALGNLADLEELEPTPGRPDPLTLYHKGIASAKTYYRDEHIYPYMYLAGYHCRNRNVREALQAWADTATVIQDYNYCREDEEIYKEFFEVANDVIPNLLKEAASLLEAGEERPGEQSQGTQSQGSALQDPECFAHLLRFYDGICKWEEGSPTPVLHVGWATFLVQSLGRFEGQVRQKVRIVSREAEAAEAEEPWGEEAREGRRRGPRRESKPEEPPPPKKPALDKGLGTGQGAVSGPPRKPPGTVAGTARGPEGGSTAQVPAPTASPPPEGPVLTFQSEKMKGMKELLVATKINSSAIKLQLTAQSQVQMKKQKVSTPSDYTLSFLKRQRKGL

Molecular target: Menin (Homo sapiens) (UniProt O00255)
Experiment: qHTS Assay for Inhibitors Targeting the Menin-MLL Interaction in MLL Related Leukemias: Competition With Texas Red Labeled MLL-derived Mutant Peptide; further: % of control where 0% means no effect
Settings: fluorescence polarization; at 61.6 µM (top of the series) unless noted

Row | SMILES | FP activity change, negative = inhibition
1 | CN(C(=O)Cc1ccc(Cl)c(Cl)c1)[C@@H]1CC[C@]2(CCCO2)C[C@H]1N1CCCC1 | inactive: -10.5%
2 | Cc1cccc(OCC(=O)OC2CN3CCC2CC3)c1 (stereo not drawn) | inactive: 11.5%
3 | O=[N+]([O-])CC(O)c1ccc([N+](=O)[O-])cc1 (stereo not drawn) | inactive: 9.19%
4 | NC(=O)Nc1ccc([As](=O)(O)O)cc1 | inactive: -0.0325% [at 24.8 µM]
5 | O=[N+]([O-])c1ccc2c(c1)nnn2O | inactive: 0.432%
6 | CCOP1(=S)c2c(C)nn(CCC#N)c2N=C(c2ccc(F)cc2)N1C (stereo not drawn) | inactive: 6.12%
7 | O=P(Nc1nccs1)(c1ccccc1)c1nc2ccccc2s1 (stereo not drawn) | inactive: -15.9%
8 | CCOP1(=S)c2c(C)nn(CCC#N)c2N=C(c2ccccc2F)N1C (stereo not drawn) | inactive: -15.3%
9 | ClCCSc1nnc(-c2cccnc2)o1 | inactive: -27.1%
10 | CC(C)NC(=O)NP(=O)(Oc1ccccc1)Oc1ccccc1 | inactive: -7.18%
11 | CCN(CC)C(=S)SC(NC=O)C(Cl)(Cl)Cl (stereo not drawn) | inactive: -3.02%
12 | C[As](=O)(O)c1cccc(C(=O)O)c1 | inactive: 12.6%
13 | Cc1ccc2nc3c(c(C)c2c1)CC(C(Cl)Cl)S3 (stereo not drawn) | inactive: -6.43%
14 | Cc1ccc(OP(=O)(Nc2ccc([N+](=O)[O-])cn2)Oc2ccc(C)cc2)cc1 | inactive: -1.92%
15 | Cc1cc(=O)[nH]c(N[N+](=O)[O-])n1 | inactive: -27.4%
16 | O=C(OC1CN2CCC1CC2)C12CC3CC(CC(C3)C1)C2 (stereo not drawn) | inactive: -0.255% [at 11.7 µM]
17 | Cc1c2c(nc3ccccc13)SC(C(Cl)Cl)C2 (stereo not drawn) | inactive: 12%
18 | COc1ccc2nc(NP(=O)(c3ccccc3)c3ccccc3)sc2c1 | inactive: -1.89%
19 | O=C(OC1CN2CCC1CC2)c1cccc([N+](=O)[O-])c1 (stereo not drawn) | inactive: 35.3%
20 | CCC(C)N(CC(C)C)C(=S)SC(NC(C)=O)C(Cl)(Cl)Cl (stereo not drawn) | inactive: -1.73%
21 | COP1(=S)c2c(C)nn(CCC#N)c2N=C(c2ccc(F)cc2)N1C (stereo not drawn) | inactive: -9.28%
22 | O=C(Nc1ccncc1[N+](=O)[O-])c1ccc([N+](=O)[O-])cc1[N+](=O)[O-] | inactive: 11.7%
23 | O=C(COc1ccccc1)OC1CN2CCC1CC2 (stereo not drawn) | inactive: 9.89%
24 | CCOC(=O)Nc1cccc([As](=O)(O)O)c1 | inactive: 19%
25 | Cc1cc(SC(NC=O)C(Cl)(Cl)Cl)ncn1 (stereo not drawn) | inactive: -7.57%
26 | O=P(Nc1ccccn1)(c1cccc2ccccc12)c1cccc2ccccc12 | inactive: -17.7%
27 | Cc1cc(SC(NC(=O)c2ccccc2)C(Cl)(Cl)Cl)nc(C(C)C)n1 (stereo not drawn) | inactive: -25%
28 | CCCCOc1ccc(C(=O)NCC2(N3CCCCC3)CCCCC2)cc1OC | inactive: -15%
